Measured values taken from ChEMBL document CHEMBL1142709, “Discovery and evaluation of 2-anilino-5-aryloxazoles as a novel class of VEGFR2 kinase inhibitors” (J Med Chem, 2005).

The chains behind the UniProt entries cited, without tags or fusion partners. Where a name states a change or a piece, a line headed by the entry shows the natural chain unless it says otherwise.
UniProt P35968, whole entry: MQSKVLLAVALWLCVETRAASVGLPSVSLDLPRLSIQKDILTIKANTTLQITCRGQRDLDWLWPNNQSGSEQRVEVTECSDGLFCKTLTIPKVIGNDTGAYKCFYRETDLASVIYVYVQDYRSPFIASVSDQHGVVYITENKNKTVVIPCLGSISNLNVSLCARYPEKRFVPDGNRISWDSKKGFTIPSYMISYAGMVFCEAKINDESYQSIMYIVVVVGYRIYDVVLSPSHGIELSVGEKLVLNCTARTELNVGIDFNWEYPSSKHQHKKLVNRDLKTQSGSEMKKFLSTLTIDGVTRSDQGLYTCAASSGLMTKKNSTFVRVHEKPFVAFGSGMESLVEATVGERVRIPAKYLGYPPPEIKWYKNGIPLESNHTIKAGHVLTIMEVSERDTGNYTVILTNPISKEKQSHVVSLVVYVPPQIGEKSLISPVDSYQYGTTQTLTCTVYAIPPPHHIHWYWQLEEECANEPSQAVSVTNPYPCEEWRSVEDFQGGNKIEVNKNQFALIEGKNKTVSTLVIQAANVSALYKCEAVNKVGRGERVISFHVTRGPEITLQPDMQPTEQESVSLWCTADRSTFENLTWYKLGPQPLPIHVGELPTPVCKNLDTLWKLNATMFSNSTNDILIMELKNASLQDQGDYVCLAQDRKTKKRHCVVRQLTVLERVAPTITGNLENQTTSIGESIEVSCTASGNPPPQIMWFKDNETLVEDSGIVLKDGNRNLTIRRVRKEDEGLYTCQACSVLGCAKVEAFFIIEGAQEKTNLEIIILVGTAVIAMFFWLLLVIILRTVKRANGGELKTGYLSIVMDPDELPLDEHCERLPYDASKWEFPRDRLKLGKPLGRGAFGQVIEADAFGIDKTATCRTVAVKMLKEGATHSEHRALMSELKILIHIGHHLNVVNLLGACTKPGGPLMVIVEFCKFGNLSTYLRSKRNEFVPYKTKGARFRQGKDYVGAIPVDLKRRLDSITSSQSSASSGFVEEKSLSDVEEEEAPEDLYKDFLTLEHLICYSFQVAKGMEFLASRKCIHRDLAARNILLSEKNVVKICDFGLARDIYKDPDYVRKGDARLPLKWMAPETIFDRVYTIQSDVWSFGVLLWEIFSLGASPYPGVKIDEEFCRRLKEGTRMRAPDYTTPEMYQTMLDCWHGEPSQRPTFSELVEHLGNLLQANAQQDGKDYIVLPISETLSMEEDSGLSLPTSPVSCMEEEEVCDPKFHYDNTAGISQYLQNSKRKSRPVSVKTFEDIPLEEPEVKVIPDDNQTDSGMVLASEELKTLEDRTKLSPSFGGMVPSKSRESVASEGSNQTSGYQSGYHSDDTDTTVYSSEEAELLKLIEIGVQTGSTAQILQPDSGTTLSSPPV
UniProt P49840: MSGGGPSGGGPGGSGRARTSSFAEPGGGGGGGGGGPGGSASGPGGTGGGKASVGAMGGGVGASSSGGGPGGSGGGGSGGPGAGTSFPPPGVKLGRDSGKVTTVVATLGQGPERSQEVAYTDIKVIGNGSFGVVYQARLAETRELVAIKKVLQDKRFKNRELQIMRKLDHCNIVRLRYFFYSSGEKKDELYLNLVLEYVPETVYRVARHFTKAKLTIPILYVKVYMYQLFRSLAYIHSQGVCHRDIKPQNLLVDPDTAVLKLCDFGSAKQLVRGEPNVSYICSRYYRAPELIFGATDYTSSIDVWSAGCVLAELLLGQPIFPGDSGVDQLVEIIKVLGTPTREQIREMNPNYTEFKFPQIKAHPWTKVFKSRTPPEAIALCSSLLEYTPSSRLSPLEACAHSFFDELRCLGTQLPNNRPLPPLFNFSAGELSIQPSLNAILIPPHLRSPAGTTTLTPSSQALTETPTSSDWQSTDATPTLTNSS
UniProt P09619, whole entry: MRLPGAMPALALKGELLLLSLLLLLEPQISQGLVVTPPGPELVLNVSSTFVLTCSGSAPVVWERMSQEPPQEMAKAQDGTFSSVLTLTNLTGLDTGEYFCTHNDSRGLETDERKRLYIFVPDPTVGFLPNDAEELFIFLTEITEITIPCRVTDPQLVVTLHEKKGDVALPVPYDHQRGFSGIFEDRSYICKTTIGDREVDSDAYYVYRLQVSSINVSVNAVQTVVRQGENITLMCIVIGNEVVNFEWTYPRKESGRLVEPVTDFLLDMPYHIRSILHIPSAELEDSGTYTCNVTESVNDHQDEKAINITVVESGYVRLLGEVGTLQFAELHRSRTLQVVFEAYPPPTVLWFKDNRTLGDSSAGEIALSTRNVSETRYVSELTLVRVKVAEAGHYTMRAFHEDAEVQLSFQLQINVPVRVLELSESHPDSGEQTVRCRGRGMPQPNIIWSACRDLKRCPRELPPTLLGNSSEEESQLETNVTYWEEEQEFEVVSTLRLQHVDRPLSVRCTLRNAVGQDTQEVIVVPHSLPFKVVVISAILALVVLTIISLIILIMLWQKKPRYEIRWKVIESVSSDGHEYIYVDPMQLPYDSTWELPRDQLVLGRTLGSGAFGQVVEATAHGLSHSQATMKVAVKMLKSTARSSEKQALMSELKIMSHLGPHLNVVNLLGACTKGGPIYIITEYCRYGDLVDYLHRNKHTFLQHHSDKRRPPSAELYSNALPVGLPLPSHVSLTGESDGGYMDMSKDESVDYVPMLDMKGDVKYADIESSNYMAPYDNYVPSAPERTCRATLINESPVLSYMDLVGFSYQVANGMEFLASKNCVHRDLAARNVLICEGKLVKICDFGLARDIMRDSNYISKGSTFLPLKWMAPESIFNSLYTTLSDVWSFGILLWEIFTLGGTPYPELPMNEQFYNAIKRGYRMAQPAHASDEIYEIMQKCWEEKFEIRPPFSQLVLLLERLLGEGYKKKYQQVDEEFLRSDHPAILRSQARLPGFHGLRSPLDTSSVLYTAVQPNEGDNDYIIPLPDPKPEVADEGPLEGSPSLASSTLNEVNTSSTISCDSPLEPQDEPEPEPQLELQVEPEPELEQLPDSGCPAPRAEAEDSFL
UniProt P17948, whole entry: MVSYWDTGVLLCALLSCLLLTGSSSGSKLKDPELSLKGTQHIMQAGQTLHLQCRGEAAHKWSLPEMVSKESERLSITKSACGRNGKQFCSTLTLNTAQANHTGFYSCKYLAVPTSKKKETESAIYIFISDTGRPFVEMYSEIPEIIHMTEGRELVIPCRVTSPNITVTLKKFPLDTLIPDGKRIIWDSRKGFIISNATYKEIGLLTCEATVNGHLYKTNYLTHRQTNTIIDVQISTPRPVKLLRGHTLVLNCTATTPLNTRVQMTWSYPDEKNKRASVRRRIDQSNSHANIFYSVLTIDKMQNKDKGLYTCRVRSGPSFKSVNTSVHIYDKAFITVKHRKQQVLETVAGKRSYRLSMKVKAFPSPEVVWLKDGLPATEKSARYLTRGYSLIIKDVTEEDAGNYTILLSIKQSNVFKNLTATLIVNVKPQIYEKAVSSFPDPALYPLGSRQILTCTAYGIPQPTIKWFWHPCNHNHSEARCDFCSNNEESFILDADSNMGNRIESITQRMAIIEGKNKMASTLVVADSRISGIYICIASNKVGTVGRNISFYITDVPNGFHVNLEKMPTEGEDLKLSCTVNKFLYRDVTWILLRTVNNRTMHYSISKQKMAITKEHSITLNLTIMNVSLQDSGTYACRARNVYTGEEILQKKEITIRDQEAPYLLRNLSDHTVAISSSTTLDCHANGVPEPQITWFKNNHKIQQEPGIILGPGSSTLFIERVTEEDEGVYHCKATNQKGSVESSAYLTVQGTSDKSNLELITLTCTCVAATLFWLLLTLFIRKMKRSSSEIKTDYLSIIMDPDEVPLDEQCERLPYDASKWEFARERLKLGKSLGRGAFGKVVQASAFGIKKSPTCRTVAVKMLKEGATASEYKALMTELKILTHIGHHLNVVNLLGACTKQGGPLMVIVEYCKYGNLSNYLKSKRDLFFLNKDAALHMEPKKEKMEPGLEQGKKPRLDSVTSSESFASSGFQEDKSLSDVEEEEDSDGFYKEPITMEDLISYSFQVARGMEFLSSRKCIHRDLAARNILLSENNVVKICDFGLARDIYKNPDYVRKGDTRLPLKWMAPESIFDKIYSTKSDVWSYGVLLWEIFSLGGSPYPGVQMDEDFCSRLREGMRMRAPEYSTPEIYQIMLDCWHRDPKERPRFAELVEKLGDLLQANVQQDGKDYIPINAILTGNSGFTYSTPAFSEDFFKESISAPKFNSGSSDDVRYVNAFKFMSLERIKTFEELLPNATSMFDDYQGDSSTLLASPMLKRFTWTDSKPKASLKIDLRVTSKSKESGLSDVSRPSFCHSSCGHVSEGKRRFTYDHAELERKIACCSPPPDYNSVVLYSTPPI
UniProt P11802: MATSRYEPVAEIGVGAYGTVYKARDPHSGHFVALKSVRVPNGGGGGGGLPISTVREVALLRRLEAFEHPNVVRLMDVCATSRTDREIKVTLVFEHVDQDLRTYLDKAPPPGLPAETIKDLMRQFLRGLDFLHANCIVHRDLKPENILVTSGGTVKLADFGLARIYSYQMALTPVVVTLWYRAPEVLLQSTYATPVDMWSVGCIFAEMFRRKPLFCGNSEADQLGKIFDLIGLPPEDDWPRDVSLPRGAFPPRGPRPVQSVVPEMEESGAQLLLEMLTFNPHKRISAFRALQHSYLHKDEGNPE
UniProt O15264: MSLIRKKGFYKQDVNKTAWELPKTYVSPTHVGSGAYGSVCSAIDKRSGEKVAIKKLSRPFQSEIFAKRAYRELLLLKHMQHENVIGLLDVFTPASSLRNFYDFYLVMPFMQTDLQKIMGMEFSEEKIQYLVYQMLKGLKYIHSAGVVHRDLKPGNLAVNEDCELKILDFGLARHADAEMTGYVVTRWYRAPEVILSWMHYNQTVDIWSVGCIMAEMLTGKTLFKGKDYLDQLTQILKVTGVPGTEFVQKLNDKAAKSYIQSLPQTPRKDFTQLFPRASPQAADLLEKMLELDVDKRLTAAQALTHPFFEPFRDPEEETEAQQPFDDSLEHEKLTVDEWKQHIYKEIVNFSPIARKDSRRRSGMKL
UniProt P53778: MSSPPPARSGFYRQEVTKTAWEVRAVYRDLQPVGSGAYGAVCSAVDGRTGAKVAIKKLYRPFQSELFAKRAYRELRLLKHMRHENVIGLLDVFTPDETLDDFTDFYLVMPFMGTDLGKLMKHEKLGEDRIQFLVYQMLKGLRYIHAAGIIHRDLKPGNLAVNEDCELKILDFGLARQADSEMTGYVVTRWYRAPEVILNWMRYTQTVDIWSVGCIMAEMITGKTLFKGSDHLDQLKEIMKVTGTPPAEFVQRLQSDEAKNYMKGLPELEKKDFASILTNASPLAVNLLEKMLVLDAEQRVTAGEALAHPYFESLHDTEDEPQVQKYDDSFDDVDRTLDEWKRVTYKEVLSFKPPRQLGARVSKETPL
UniProt P07333, whole entry: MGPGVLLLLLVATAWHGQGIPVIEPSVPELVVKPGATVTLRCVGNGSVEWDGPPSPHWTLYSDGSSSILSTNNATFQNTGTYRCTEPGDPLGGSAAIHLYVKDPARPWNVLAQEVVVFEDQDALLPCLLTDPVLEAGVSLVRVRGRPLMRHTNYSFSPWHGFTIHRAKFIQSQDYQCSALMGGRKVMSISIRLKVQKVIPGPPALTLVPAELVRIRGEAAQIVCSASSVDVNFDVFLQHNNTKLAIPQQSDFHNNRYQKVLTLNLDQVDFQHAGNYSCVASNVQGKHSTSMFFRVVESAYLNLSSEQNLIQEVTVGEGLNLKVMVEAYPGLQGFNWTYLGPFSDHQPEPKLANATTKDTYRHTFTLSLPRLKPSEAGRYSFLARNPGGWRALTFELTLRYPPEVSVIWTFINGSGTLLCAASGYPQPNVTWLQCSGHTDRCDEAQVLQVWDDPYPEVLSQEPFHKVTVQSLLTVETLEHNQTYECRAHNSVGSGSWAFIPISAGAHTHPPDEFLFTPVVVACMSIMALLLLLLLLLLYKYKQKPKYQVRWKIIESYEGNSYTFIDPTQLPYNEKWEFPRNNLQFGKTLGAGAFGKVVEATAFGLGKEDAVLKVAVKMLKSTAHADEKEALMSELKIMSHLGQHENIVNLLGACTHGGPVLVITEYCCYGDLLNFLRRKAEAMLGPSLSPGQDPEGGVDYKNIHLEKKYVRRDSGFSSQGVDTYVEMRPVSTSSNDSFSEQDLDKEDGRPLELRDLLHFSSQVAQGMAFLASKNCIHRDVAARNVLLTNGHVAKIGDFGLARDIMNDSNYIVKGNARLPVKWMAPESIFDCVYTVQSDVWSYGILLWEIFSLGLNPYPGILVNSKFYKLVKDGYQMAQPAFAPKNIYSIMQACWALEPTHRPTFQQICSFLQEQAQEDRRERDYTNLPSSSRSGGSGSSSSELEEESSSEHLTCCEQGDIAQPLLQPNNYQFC

Experiments:
[1] = target: T1, Vascular endothelial growth factor receptor 2 (Homo sapiens, UniProt P35968); experiment: Inhibition of human Vascular endothelial growth factor receptor 2
[2] = target: Glycogen synthase kinase-3 (Homo sapiens) (UniProt P49840+P49841); experiment: Selectivity for Glycogen synthase kinase-3 by scintillation proximity assay; format: protein assay
[3] = target: Platelet-derived growth factor receptor beta (Homo sapiens) (UniProt P09619); experiment: Selectivity for Platelet-derived growth factor receptor beta by homologous time-resolved fluorescence assay
[4] = target: Vascular endothelial growth factor receptor 1 (Homo sapiens) (UniProt P17948); experiment: Selectivity for Vascular endothelial growth factor receptor 1 by homologous time-resolved fluorescence assay
[5] = target: T1, Vascular endothelial growth factor receptor 2; experiment: Selectivity for human Vascular endothelial growth factor receptor 2 by homologous time-resolved fluorescence assay
[6] = target: T2, Tyrosine-protein kinase ITK/TSK (Homo sapiens) (UniProt Q08881); experiment: Selectivity for IL-2-inducible T-cell kinase by fluorescence polarization binding assay
T2 sequence (whole entry): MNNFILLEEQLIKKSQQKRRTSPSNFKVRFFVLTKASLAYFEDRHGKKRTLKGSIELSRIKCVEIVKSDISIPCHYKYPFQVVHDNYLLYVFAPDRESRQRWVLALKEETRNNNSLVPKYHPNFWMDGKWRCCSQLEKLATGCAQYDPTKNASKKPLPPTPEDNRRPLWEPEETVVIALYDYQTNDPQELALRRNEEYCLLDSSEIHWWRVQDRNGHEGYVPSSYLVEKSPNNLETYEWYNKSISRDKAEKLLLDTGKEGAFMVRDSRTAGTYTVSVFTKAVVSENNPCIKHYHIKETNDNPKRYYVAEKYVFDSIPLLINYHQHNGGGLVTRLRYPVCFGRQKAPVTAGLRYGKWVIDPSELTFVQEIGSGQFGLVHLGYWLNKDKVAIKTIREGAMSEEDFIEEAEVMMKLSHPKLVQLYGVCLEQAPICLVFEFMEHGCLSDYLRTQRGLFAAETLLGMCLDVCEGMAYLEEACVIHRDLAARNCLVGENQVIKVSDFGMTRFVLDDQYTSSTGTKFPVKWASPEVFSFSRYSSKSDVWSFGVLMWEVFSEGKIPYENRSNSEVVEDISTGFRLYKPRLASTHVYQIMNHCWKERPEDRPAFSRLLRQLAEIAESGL

[7] = target: Cyclin-dependent kinase 4 (Homo sapiens) (UniProt P11802); experiment: Selectivity for Cyclin-dependent kinase 4 by plate capture and filtration binding assay
[8] = target: Proto-oncogene tyrosine-protein kinase Src (Homo sapiens) (UniProt P12931); experiment: Selectivity for Src protein tyrosine kinase by homologous time-resolved fluorescence assay
[9] = target: MAP kinase p38 (Homo sapiens) (UniProt O15264+Q15759+Q16539+P53778); experiment: Selectivity for Mitogen-activated protein kinase p38 by fluorescence polarization binding assay
[10] = target: Macrophage colony-stimulating factor 1 receptor (Homo sapiens) (UniProt P07333); experiment: Selectivity for colony stimulating factor 1 receptor by plate capture and filtration binding assay
[11] = target: Angiopoietin-1 receptor (Homo sapiens) (UniProt Q02763); experiment: Selectivity for Tyrosine protein kinase receptor TIE-2 by homologous time-resolved fluorescence assay

IC50 [1] [nM] | SMILES | further results
25 | CCS(=O)(=O)c1ccc(OC)c(Nc2ncc(-c3cccc(-c4cncn4C)c3)o2)c1 | –
89 | CCS(=O)(=O)c1ccc(OC)c(Nc2ncc(-c3cccc(-c4ccccc4F)c3)o2)c1 [GW678313X] | –
500 | OCc1cccc(Nc2ncc(-c3ccccc3)o2)c1 | –
87 | CCS(=O)(=O)c1ccc(OC)c(Nc2ncc(-c3ccc(OC)cc3)o2)c1 | –
81 | CCS(=O)(=O)c1ccc(OC)c(Nc2ncc(-c3ccc(Cl)cc3)o2)c1 | –
870 | N#Cc1ccccc1Nc1ncc(-c2ccccc2)o1 | –
51 | CCS(=O)(=O)c1ccc(OC)c(Nc2ncc(-c3ccc(C#N)cc3)o2)c1 | –
360 | CCS(=O)(=O)c1ccc(OC)c(Nc2ncc(-c3cccc(OC)c3)o2)c1 [GW580509X] | –
500 | NS(=O)(=O)c1ccc(Nc2ncc(-c3ccccc3)o2)cc1 [GW572399X] | –
76 | CCS(=O)(=O)c1ccc(OC)c(Nc2ncc(-c3cccc(-c4cccnc4)c3)o2)c1 | –
39 | CCS(=O)(=O)c1ccc(OC)c(Nc2ncc(-c3cccc(-c4ccccc4Cl)c3)o2)c1 | Selectivity [2]: > 10 µM; Selectivity [3]: 0.93 µM; Selectivity [4]: 0.11 µM; Selectivity [5]: 0.39 µM; Selectivity [6]: 0.12 µM; Selectivity [7]: > 10 µM; Selectivity [8]: 0.29 µM; Selectivity [9]: > 10 µM; Selectivity [10]: 1.9 µM; Selectivity [11]: 1.8 µM
91 | CCS(=O)(=O)c1ccc(OC)c(Nc2ncc(-c3cccc(C(C)=O)c3)o2)c1 [GW621431X] | –
29 | CCc1cccc(-c2cnc(Nc3cc(S(=O)(=O)CC)ccc3OC)o2)c1 | –
360 | CCS(=O)(=O)c1ccc(OC)c(Nc2ncc(-c3ccccc3Cl)o2)c1 [GW622055X] | –
> 10000 | c1ccc(Oc2ccc(Nc3ncc(-c4ccccc4)o3)cc2)cc1 | –
380 | COc1ccccc1Nc1ncc(-c2ccccc2)o1.Cl [GW577921A] | –
22 | CCS(=O)(=O)c1ccc(OC)c(Nc2ncc(-c3cccc(Cl)c3)o2)c1 | –
16 | CCS(=O)(=O)c1ccc(OC)c(Nc2ncc(-c3cccc(-c4cccs4)c3)o2)c1 | –
1410 | c1ccc(Oc2cccc(Nc3ncc(-c4ccccc4)o3)c2)cc1 | –
78 | CCS(=O)(=O)c1ccc(OC)c(Nc2ncc(-c3cccc(-c4ccncc4)c3)o2)c1 | –
720 | CCS(=O)(=O)c1cccc(Nc2ncc(-c3ccccc3)o2)c1 | –
50 | CCS(=O)(=O)c1ccc(OC)c(Nc2ncc(-c3ccccc3)o2)c1 | –
93 | CCS(=O)(=O)c1ccc(OC)c(Nc2ncc(-c3cccc(F)c3)o2)c1 [GW621970X] | –
15 | CCS(=O)(=O)c1ccc(OC)c(Nc2ncc(-c3cccc(-c4ccsc4)c3)o2)c1 | –
79 | CCS(=O)(=O)c1ccc(OC)c(Nc2ncc(-c3cccc(-c4ccccc4)c3)o2)c1 | –
141 | CCS(=O)(=O)c1ccc(OC)c(Nc2ncc(-c3cccc(C#N)c3)o2)c1 | –
18 | CCS(=O)(=O)c1ccc(OC)c(Nc2ncc(-c3ccc(C(N)=O)cc3)o2)c1 | –
79 | CCS(=O)(=O)c1ccc(OC)c(Nc2ncc(-c3ccc(F)cc3)o2)c1 | –
22 | CCS(=O)(=O)c1ccc(OC)c(Nc2ncc(-c3cccc(-c4ccccn4)c3)o2)c1 | –
